This note sets out measurements from patent US5919901A (priority 1996, dated 1999).

The target in one assay is T1, Y5 receptor (Y861 clone) (Rattus norvegicus, UniProt Q63634).
T1 construct: expressed in transfected cells; host or cells: COS-7 (transient, pcDNA3 library clone)
T1 sequence (Q63634 1-445): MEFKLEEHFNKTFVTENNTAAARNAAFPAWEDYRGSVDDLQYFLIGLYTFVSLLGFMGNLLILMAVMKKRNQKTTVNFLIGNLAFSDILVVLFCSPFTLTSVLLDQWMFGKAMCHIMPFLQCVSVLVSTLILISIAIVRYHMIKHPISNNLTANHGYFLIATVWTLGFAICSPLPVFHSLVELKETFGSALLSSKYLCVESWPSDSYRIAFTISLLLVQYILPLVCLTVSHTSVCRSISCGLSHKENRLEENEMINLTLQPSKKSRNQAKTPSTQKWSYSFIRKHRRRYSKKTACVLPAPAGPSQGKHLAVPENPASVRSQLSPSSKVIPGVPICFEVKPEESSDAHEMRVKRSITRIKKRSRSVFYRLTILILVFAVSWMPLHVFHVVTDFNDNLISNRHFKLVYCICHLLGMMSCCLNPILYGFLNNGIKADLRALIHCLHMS
Description: [125I]PYY competition binding, clone Y861 membranes from transiently transfected COS-7 cells. Here is the method:
The media was removed from each flask of transfected cells, and the cells were washed twice with 20 ml ice-cold phosphate buffered saline.
(West Haven, Conn.). All other peptides were purchased from either Peninsula (Belmont, Calif.) or Bachem (Torrance, Calif.).

For the next assay, the system named is Adult male Wistar rats. The assay is described as follows: In vivo feeding after ICV injection, rodent chow consumed in 2 hours. Further details: species or system rat. As to conditions: for Feeding (g/2 h): rats, ICV, 1-6 nmoles peptide, chow consumed in 2 hours, saline <3 g/2 hours.

On to `CC[C@H](C)[C@H](NC(=O)[C@H](Cc1ccc(O)cc1)NC(=O)[C@H](Cc1c[nH]cn1)NC(=O)[C@H](CCCNC(=N)N)NC(=O)[C@H](CC(C)C)NC(=O)[C@H](C)NC(=O)[C@H](CO)NC(=O)[C@H](Cc1ccc(O)cc1)NC(=O)[C@@H](N)Cc1ccc(O)cc1)C(=O)N[C@@H](CC(N)=O)C(=O)N[C@@H](CC(C)C)C(=O)N[C@H](C(=O)N[C@H](C(=O)N[C@@H](CCCNC(=N)N)C(=O)N[C@@H](CCC(N)=O)C(=O)N[C@@H](CCCNC(=N)N)C(=O)N[C@@H](Cc1ccc(O)cc1)C(N)=O)[C@@H](C)O)[C@@H](C)CC` [r/h(20-36)NPY, (20-36)NPY], for which the “affinity for the Y5 receptor” value at Y5 receptor (Y861 clone) is “lower affinity”. Moreover, the “feeding response in rats” value in the assay on Adult male Wistar rats (administered ICV to rats) is given as “do not elecit feeding”. The “Feeding (g/2 h)” value with Adult male Wistar rats is listed as under 3 g/2 h.
Take `CC[C@H](C)[C@H](NC(=O)[C@H](Cc1ccc(O)cc1)NC(=O)[C@H](Cc1c[nH]cn1)NC(=O)[C@H](CCCNC(=N)N)NC(=O)[C@H](CC(C)C)NC(=O)[C@H](C)NC(=O)[C@H](CO)NC(=O)[C@H](Cc1ccc(O)cc1)NC(=O)[C@H](Cc1ccc(O)cc1)NC(=O)[C@H](CCCNC(=N)N)NC(=O)[C@H](C)N)C(=O)N[C@@H](CC(N)=O)C(=O)N[C@@H](CC(C)C)C(=O)N[C@H](C(=O)N[C@H](C(=O)N[C@@H](CCCNC(=N)N)C(=O)N[C@@H](CCC(N)=O)C(=O)N[C@@H](CCCNC(=N)N)C(=O)N[C@@H](Cc1ccc(O)cc1)C(N)=O)[C@@H](C)O)[C@@H](C)CC` [p(18-36)NPY, (18-36)NPY]: in the assay on Adult male Wistar rats, the “Feeding (g/2 h)” value is on record as under 3 g/2 h.
